Measurements published in PMC6234012 (Nature structural & molecular biology, 2018).

Chains of the proteins cited; added tags and fusions are not shown. Lines headed by an entry give the natural chain unless they say otherwise; changes in a name come on top.
UniProt Q8IW19: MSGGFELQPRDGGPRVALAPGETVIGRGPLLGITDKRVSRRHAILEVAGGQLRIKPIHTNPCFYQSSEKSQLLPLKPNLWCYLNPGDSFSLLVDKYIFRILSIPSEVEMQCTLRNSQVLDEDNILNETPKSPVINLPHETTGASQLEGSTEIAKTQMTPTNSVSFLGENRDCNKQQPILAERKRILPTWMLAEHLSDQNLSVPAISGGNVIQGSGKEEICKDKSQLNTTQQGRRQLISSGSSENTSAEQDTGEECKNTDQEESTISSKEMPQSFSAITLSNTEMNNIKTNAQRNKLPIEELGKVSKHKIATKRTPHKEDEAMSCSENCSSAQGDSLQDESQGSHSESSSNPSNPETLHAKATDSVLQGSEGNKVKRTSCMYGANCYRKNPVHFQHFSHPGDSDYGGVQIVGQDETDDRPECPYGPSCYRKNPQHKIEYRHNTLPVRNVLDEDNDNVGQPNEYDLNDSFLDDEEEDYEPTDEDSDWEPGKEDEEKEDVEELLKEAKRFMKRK
UniProt Q9H9Q4: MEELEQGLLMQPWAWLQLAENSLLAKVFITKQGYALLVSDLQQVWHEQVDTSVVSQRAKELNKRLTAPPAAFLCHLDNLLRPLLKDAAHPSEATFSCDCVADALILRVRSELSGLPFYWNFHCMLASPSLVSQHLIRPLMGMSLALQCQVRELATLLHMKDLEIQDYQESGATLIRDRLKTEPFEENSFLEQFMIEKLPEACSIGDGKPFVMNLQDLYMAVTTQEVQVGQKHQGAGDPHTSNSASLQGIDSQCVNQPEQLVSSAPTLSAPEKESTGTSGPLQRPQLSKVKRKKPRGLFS

Columns and labels:
[1] = test system: Ku complexed with a 50bp DNA; test: EMSA / gel shift with XLF and Ku-50bp DNA, peptide competition; assay type: binding
[2] = biological target: KuFL I112R (Ku80 mutant on APLF site) (Homo sapiens, UniProt P12956+P13010, I112R); test: ITC, ligand into KuFL I112R; assay type: binding; settings: 25°C, pH 8.0
KuFL+pAPLF = KuFL+pAPLF (Homo sapiens, UniProt P12956+P13010); test: ITC competition, ligand into KuFL saturated with pAPLF; assay type: binding
[3] = biological target: T1, truncated Ku heterodimer Ku70(1–544)/Ku80(1–551), deleted for the C-terminal regions (UniProt P12956 1-544; P13010 1-551); test: ITC
[4] = biological target: T1, truncated Ku heterodimer …; test: crystal structure

- Kd [2]: NI^(a)
Molecule: CC[C@H](C)[C@H](NC(=O)[C@H](CCCNC(=N)N)NC(=O)[C@H](CCCCN)NC(=O)[C@H](CCCNC(=N)N)NC(=O)[C@H](CCC(=O)O)NC(=O)[C@H](C)NC(=O)[C@H](CC(C)C)NC(=O)[C@@H](NC(=O)[C@@H]1CCCN1C(=O)[C@H](CCC(N)=O)NC(=O)[C@H](CCC(N)=O)NC(=O)[C@@H](N)CCCCN)[C@@H](C)CC)C(=O)N[C@@H](CC(C)C)C(=O)N1CCC[C@H]1C(=O)N[C@H](C(=O)N[C@@H](Cc1c[nH]c2ccccc12)C(=O)N[C@@H](CCSC)C(=O)N[C@@H](CC(C)C)C(=O)O)[C@@H](C)O [pAPLF]
- Competition with XLF protein for Ku-DNA ([1]; EMSA competition, XLF and Ku, 50bp DNA with 5' FAM, room temperature 1 hr): does not displace XLF

- Interaction with Ku saturated with the A-KBM, in words (KuFL+pAPLF): no longer interacts with Ku
Molecule: CC(C)C[C@H](NC(=O)[C@H](CCC(N)=O)NC(=O)[C@@H]1CCCN1C(=O)[C@H](CCCNC(=N)N)NC(=O)[C@H](CCC(N)=O)NC(=O)[C@@H](N)CC(C)C)C(=O)N[C@@H](CO)C(=O)N[C@@H](CCCCN)C(=O)N[C@H](C(=O)N[C@@H](CCCCN)C(=O)N[C@@H](CCCNC(=N)N)C(=O)N[C@@H](CCCCN)C(=O)N[C@@H](CCCCN)C(=O)N1CCC[C@H]1C(=O)N[C@@H](CCCNC(=N)N)C(=O)NCC(=O)N[C@@H](Cc1c[nH]c2ccccc12)C(=O)N[C@@H](Cc1ccccc1)C(=O)N[C@@H](CO)C(=O)O)C(C)C [pXLF(LW)]

Molecule: XLF: full length XLF protein; 10-His tagged in vitro, CFP-tagged or complemented in cells
- Interaction with Ku complexed with 50bp DNA ([1]; EMSA, 25 nM oligonucleotide, 75 mM KCl, 10 mM Tris pH 7.5, room temperature 1 hr): in the μM range

- Kd [3]: 20 ± 2 nM
- dH [3]: -18.4 ± 0.7 kcal/M
Molecule: KQQPILAERKRILPTWML (peptide, UniProt Q8IW19 174-191, looked up) [18-mer A-KBM peptide of APLF (aa 174–191)]

- Kd [3]: 2200 nM
- dH [3]: -3.1 kcal/M
Molecule: LQRPQLSKVKRKKPRGLFS (peptide, UniProt Q9H9Q4 281-299, looked up) [X-KBM peptide of XLF (L281 to S299), 19mer]

- binding result [4]: binds
Molecule: SKVKRKKPRGLFS (peptide, UniProt Q9H9Q4 287-299, looked up) [short X-KBM peptide of XLF (S287-S299), 13mer]

One block for each molecule: values may come before it.
